The values below come from patent publication US20030082194A1, “Compositions and methods for diagnosis and therapy of malignant mesothelioma” (priority 2000, published 2003).

Assay [1] deals with mouse B6 class I antigens (D^b or K^b molecules on RMA-S cells). Put plainly: Peptide binding to C57Bl/6 murine MHC on RMA-S cells, flow cytometry (Tables 48, 49). The class given is cell-based. On the procedure: Peptide binding to C57Bl/6 murine MHC was confirmed using the leukemia cell line RMA-S, (Ljunggren et al., 1990). In brief, RMA-S cells were cultured for 7 hrs at 26° C. in complete medium supplemented with 1% FCS. A total of […] RMA-S cells were added into each well of a 24-well plate and incubated either alone or with the designated peptide (25 μg/ml) for 16 hrs at 26° C. and additional 3 hrs at 37° C. in complete medium. Cells were then washed three times and stained with fluorescein isothiocyanate-conjugated anti Db or anti-Kb antibody (PharMingen, San Diego, CA). Labeled cells were washed twice, resuspended and fixed in 500 μl of PBS with 1% paraformaldehyde and analyzed for fluorescence intensity in a flow cytometer (Becton-Dickinson FACSCalibur®). The percentage of increase of D^b or K^b molecules on the surface of the RMA-S cells was measured by increased mean fluorescent intensity of cells incubated with peptide compared with that of cells incubated in medium alone.
Background: A flow cytometer gives signals particle by particle.

For assay [2], the system named is targets incubated with WT1 peptides (EL-4). Description: CTL chromium release assay, peptide-incubated targets. The class given is cell-based, mouse. On the procedure: (§1) Mice were immunized with the peptides capable of binding to murine class I MHC. Following immunization, spleen cells were stimulated in vitro and tested for the ability to lyse targets incubated with WT1 peptides. CTL were evaluated with a standard chromium release assay (Chen et al., 1994). […] target cells were incubated at 37° C. with 150 μCi of sodium ^51Cr for 90 min., in the presence or absence of specific peptides. Cells were washed three times and resuspended in RPMI with 5% fetal bovine serum. For the assay, 10^4 51Cr-labeled target cells were incubated with different concentrations of effector cells in a final volume of 200 μl in U-bottomed 96-well plates. Supernatants were removed after 4-7 hrs at 37° C., and the percentage specific lysis was determined by the formula:
(§2) % Specific lysis=100×(experimental release−spontaneous release)/(maximum release-spontaneous release).
(§3) P117-139, a peptide with motifs appropriate for binding to class I and class II MHC, was identified as described above using TSITES and BIMAS HLA peptide binding prediction analyses. Mice were immunized as described in Example 3. Following immunization, spleen cells were stimulated in vitro and tested for the ability to lyse targets incubated with WT1 peptides, as well as WT1 positive and negative tumor cells. CTL were evaluated with a standard chromium release assay. […]

Assay [3] has as its system WT1 positive tumor cell lines (TRAMP-C, BLK-SV40). Put plainly: CTL chromium release assay, WT1 positive tumor cell lines. Format: cell-based, mouse. The method, then:
as §1, §2, §3

As for RMFPNAPYL [SEQ ID NO:185], the “Binding Affinity to Mouse MHC Class I” value in assay [1] (9-mer peptides within p117-139, mouse B6 class I antigens, Table 49) is 79%; in assay [1] (peptide 25 μg/ml, percentage of increase of Db or Kb molecules (mean fluorescent intensity) vs medium alone, Table 48), 0.9%. For the same sequence, the “binding to H-2b class I molecules / class I MHC molecules” value in assay [1] (peptide 25 μg/ml) was “shown to bind to H-2b class I molecules”. Also, in assay [2] (FIG. 10A), the “lysis of targets incubated with 9-mer peptide by CTL generated by immunization with p117-139” value was “lysed”. Also, the “lysis of targets incubated with the relevant peptide by peptide specific CTL” value in assay [2] (chromium release assay) was “demonstrated peptide specific lysis”. Further, in assay [3], the “lysis of WT1 positive tumor cells by peptide specific CTL” value is “only p130-138 specific CTL showed lysis of a WT1 positive tumor cell line”.
